In patent US11680043B2, “Pharmaceutically acceptable salts of psilocin and uses thereof” (priority 2021, dated 2023):
Values joined by “and” are separate entries in the source; they are usually repeats but may differ in a detail not shown here. Identical values can stand only once. Counter-ions that a name gives are not always drawn.

Test: Solubility of psilocin salts in saline
Details: for Solubility / Average Solubility / solubility at 5 h: 5 hrs; for solubility at 5 h: 25 °C, saline or isotonic, thermodynamic from solid
[1] = Saline, single replicate, updated summary (Table 10)
[2] = Saline, updated summary (Table 10)
[3] = saline, 25° C., 750 rpm, maximum anticipated concentration 10 mg/mL of free base (Table 9)
[4] = saline, 25° C., max 10 mg/mL free base (Table 9)
[5] = saline, 25° C., single replicate, max 10 mg/mL free base (Table 9)

Row | Compound | Solubility [1] | Average Solubility [2] [mg/mL] | Appearance at 5 hrs [2] | Appearance at 5 hrs [3] | Average Solubility [4] [mg/mL] | Solubility [5] | solubility at 5 h (saline, Average Solubility, max 10 mg/mL free base (Table 9)) [µg/mL] | solubility at 5 h (saline, Solubility, single replicate, max 10 mg/mL free base (Table 9)) [µg/mL] | Appearance at 5 hrs (saline, 25° C., 750 rpm, maximum anticipated concentration 10 mg/mL of free base (Table 9), hydrochloride)
1 | CN(C)CCc1c[nH]c2cccc(O)c12.O=C(O)c1ccccc1O [Psilocin salicylate SAL Pattern 1, Psilocin salicylate] | 5.5 mg/mL and 6.0 mg/mL | 5.8 | Grey/blue suspension | Grey suspension | 5.8 | 5.5 mg/mL and 6.0 mg/mL | – | – | –
2 | Psilocin succinate [Psilocin succinate SUC Pattern 3] | >28 mg/mL and >25 mg/mL | >27 | Clear solution | Clear solution | – | – | – | – | –
3 | CN(C)CCc1c[nH]c2cccc(O)c12 [Psilocin free base, Psilocin] | – | – | Grey suspension | Grey suspension | – | – | 760 | 780 | –
4 | CN(C)CCc1c[nH]c2cccc(O)c12.O=C(O)c1ccccc1 [Psilocin benzoate BEN Pattern 1, Psilocin benzoate] | 5.0 mg/mL and 4.9 mg/mL | 5.0 | Grey suspension | Grey suspension | 5.0 | 5.0 mg/mL and 4.9 mg/mL | – | – | –
5 | CN(C)CCc1c[nH]c2cccc(O)c12.O=S(=O)(O)c1cccc2c(S(=O)(=O)O)cccc12 [Psilocin 1,5-napthalenedisulfonate NAP Pattern 1] | 7.0 mg/mL and 7.1 mg/mL | 7.1 | Grey/blue suspension | – | 7.1 | 7.0 mg/mL and 7.1 mg/mL | – | – | –
6 | CN(C)CCc1c[nH]c2cccc(O)c12 [Psilocin hydrochloride HCl Pattern 1, Psilocin hydrochloride] | – | – | – | – | – | – | – | – | Clear solution
